The assay has as its target EP3 receptor (Homo sapiens, UniProt P43115). Description: [3H]-PGE2 binding assay (EP3 competition binding). Particulars: read-out: [3H]-PGE2 Binding Ki; tested form: TFA.

By UniProt entry, the sequences of proteins in these tests, tags left out.
UniProt P43115, whole entry: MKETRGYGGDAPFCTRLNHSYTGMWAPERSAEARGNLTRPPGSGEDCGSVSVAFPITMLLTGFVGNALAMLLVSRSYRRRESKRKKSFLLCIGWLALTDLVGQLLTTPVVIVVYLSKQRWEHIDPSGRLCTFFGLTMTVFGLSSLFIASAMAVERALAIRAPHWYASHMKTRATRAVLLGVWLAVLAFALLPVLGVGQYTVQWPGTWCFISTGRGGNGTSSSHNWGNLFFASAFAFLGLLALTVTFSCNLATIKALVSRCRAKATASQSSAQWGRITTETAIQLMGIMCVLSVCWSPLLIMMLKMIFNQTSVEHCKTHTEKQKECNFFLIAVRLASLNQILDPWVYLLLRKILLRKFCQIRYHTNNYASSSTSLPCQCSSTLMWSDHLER

As a reminder, the Ki is the dissociation constant of the complex between target and ligand, obtained from inhibition or displacement.

As for `CCn1ncc2c(F)cc(-c3ccc(C4CC5CN(C(=NC#N)NC(C)C)CC5C4)c(=O)[nH]3)cc21` (stereo not shown), the Ki was 42 nM.
